The chains behind the UniProt entries cited, without tags or fusion partners. Where a name states a change or a piece, a line headed by the entry shows the natural chain unless it says otherwise.
UniProt P10275: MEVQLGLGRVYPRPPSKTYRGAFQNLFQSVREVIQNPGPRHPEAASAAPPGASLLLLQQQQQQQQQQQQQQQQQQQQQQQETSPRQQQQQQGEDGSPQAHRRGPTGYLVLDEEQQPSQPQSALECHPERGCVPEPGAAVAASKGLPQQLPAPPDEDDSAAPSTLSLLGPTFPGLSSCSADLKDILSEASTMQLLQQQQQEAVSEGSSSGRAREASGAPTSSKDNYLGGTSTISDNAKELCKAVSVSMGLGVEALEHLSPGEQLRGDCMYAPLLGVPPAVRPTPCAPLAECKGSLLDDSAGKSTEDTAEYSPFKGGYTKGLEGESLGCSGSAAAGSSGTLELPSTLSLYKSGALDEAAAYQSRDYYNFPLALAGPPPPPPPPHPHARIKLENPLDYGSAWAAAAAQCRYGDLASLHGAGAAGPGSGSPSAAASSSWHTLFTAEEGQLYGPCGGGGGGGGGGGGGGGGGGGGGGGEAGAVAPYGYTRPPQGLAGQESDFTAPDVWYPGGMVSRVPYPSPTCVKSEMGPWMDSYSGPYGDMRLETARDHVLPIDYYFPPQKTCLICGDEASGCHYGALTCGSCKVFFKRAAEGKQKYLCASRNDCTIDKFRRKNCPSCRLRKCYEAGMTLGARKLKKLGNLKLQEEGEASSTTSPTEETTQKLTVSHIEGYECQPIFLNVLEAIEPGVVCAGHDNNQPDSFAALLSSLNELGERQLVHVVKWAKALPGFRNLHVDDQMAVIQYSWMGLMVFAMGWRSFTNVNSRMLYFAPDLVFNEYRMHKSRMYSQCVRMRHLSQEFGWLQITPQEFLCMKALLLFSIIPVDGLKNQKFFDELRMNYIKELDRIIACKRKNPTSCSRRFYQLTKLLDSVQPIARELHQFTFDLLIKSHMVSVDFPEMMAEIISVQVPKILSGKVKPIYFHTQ

In publication PMC9819389, “Antiandrogenic and Estrogenic Activity Evaluation of Oxygenated and Nitrated Polycyclic Aromatic Hydrocarbons Using Chemically Activated Luciferase Expression Assays” (International Journal of Environmental Research and Public …, 2022):

Molecular target: human AR (Homo sapiens, UniProt P10275)
Assay: AR-CALUX assay, antiandrogenic (AR antagonistic) activity, U2OS-luc cells
Format: cell-based
Set-up: host or cells: human U2OS-luc (osteoblastic osteosarcoma) cells

## O=[N+]([O-])c1ccc2ccc3ccc([N+](=O)[O-])c4ccc1c2c34 [1,8-DNPy, 1,8-dinitropyrene]
  IC25: 170 nM
  IC50: 720 nM
